Compound activity deposited in PubChem by Broad Institute.
SR-BI DiI inh – inhibitors of mouse SR-BI mediated HDL lipid uptake | Q61009 | ldlA[mSR-BI] CHO cells, DiI-HDL uptake fluorescence, 3 h | inhibition, % at 12.5 µM | 320,000 tested, 0.96% active | AID 488896;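 active means mean replicate inhibition of at least 70% and a set share of replicates each scoring 70 or more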
Yeast UUG start – alters start codon recognition fidelity in yeast; S. cerevisiae UUG-firefly luciferase reporter, luminescence/redox ratio; activity score, % at 18.7 µM; actives 0.13% (n = 350,000); AID 602363;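 active = replicate mean at a twofold rise or more, about +100% in these data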;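 also: firefly luciferase made from a UUG start codon reports start codon fidelity; reporter light over untreated wells divided by growth signal over untreated wells; some hits fall short of that in this replicate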
INS-1E GSIS act – primary screen for activators of insulin secretion dependent on glucose, INS-1E cells, GLuc reporter luminescence; AID 743287; 370,000 tested, 0.61% active; activation, % at 16.6 µM; INS-1E GLuc reporter insulin secretion, 2-3 h;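 active means lowest replicate activation of at least 40%, so every replicate reaches that level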
SR-BI DiI-HDL act – enhances SR-BI lipid uptake from DiI-HDL. activation, % at 12.5 µM. AID 504775. CHO ldlA[mSR-BI] cells, DiI-HDL uptake fluorescence, 3 h; 100 = double the neutral-control signal. 320,000 tested, 0.096% active;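 active means mean replicate activation of at least 60% and every replicate at or above 60%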
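Test system: SR-BI-overexpressing, LDLR-lacking CHO cells; Also added: labelled HDL, 10 µg/mL; Measured by: bottom-read cell fluorescence after medium removal, ex 550/em 595 nm; Timing: 3 h uptake period with compound, 37 °C; Buffer or medium: F12, 0.5% BSA, 25 mM HEPES; Doses: single compound concentration, delivered by pin transfer.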
Hits are given with their value; . = inactive; / = no result. Only some compounds are listed: those with a hit (about 1.3% of all), similar ones and a draw of the others.

SMILES	SR-BI DiI inh	Yeast UUG start	INS-1E GSIS act	SR-BI DiI-HDL act
NC(N)=Nc1nc(C2COc3ccccc3O2)cs1 (stereo unspecified)	.	/	.	.
CCOc1cccc(-c2csc(C3COc4ccccc4O3)n2)c1 (stereo unspecified)	.	/	126	.
C/C=C/c1cnc2c(c1)C(=O)N([C@H](C)CO)C[C@@H](C)[C@@H](CN(C)Cc1cncnc1)O2	/	.	.	/
CSc1ccc(CN2C(=O)C(C)Sc3ccc(C(C)=O)cc32)cc1 (stereo unspecified)	/	.	/	/
COc1cccc(-c2ccc3c(c2)N(Cc2cccc(F)c2)C(=O)C(C)S3)c1 (stereo unspecified)	/	.	42	/
Cc1ccc2c(c1)N(Cc1ccccc1)C(=O)C(C)S2 (stereo unspecified)	/	.	.	/
CC(=O)c1ccc2c(c1)N(Cc1ccccc1)C(=O)C(C)S2 (stereo unspecified)	/	.	50	/
CC1Oc2ccccc2N(Cc2cccc(F)c2)C1=O (stereo unspecified)	.	.	43	.
CC(=O)c1cccc(NC(=O)CCC(=O)Oc2ccc(C)cc2)c1	.	.	222	.
Cc1ccc(C(=O)N/C(=C/c2ccc(Cl)cc2)C(=O)N2CCOCC2)cc1	/	.	51	/
O=C(NCCNC(=O)c1cccc(O)c1)c1cccc(O)c1	.	.	.	.
NNC(=O)c1cccc(O)c1	.	.	43	.
CC(C)CN1CC(=O)N2C(c3ccccc3)c3[nH]c4ccccc4c3C[C@H]2C1=O (stereo partly specified)	78	.	.	.
O=C1c2ccccc2C(=Nc2ccccc2)C1c1cccc(Br)c1 (stereo unspecified)	81	/	/	.
O=C1c2ccccc2-c2cc(Br)ccc2NC1O (stereo unspecified)	/	.	/	/
C[C@@H]1CN([C@H](C)CO)C(=O)c2cccc(NS(=O)(=O)c3cccs3)c2O[C@@H]1CN(C)CC1CCCCC1	/	.	.	/
O=C(CCCN1C(=O)S/C(=C\c2ccccc2)C1=O)NNC(=O)c1ccccc1O	.	/	.	.
O=C(CCN1C(=O)/C(=C\c2ccccc2)SC1=S)NNC(=O)c1ccccc1O	99	.	.	.
CCCn1nc(NC(=O)c2ccco2)c2cc3ccccc3nc21	.	/	45	.
CCn1nc(NC(=O)c2ccco2)c2cc3cc(C)ccc3nc21	.	/	.	.
CCCn1nc(NC(=O)c2cccs2)c2cc3cc(OC)ccc3nc21	.	.	/	.
CCCCn1nc(NC(=O)c2cccs2)c2cc3cc(OC)ccc3nc21	82	.	/	.
COc1ccc2c3c(n(C)c2c1)[C@H](CO)NCC31CCN(S(=O)(=O)c2ccccc2)CC1	/	/	.	/
Cc1onc(-c2ccccc2)c1C(=O)NC(=S)NNC(=O)c1ccccc1O	117	/	.	.
Cc1onc(-c2ccccc2)c1C(=O)NC(=S)NNC(=O)c1ccc(O)cc1	.	/	.	.
SMILES	SR-BI DiI inh	Yeast UUG start	INS-1E GSIS act	SR-BI DiI-HDL act
Cc1onc(-c2ccccc2)c1C(=O)NC(=S)NNC(=O)c1ccc(O)cc1O	85	/	.	.
CC(C)NC(=O)N(C)C[C@@H]1Oc2ccc(NC(=O)Nc3ccc(C(F)(F)F)cc3)cc2C(=O)N([C@H](C)CO)C[C@@H]1C	/	.	.	/
Cc1ccc(-c2nc(NC(=O)c3cc(C(C)(C)C)nn3C)sc2C)cc1Cl	73	.	.	.
CC1CCc2nc(NC(=O)c3cc(C(C)(C)C)nn3C)sc2C1 (stereo unspecified)	/	.	.	/
CO[C@@H](CN(C)S(=O)(=O)c1ccc(F)cc1)[C@H](C)CN([C@@H](C)CO)S(=O)(=O)c1cccc(Cl)c1	/	/	.	/
COC(=O)c1sc(NC(=O)c2cccc([N+](=O)[O-])c2)c(C(N)=O)c1C	.	.	78	.
CC(C)(C)NC(=S)NNC(=O)c1ccncc1	.	/	.	185
O=C(NCc1ccccc1Cl)C1CCN(S(=O)(=O)c2ccc(N3CCCC3=O)cc2)CC1	114	.	.	/
CC(=O)N1CCc2c(sc(NC(=O)c3ccc([N+](=O)[O-])o3)c2C#N)C1	.	.	.	.
COc1ccc(C(=O)Nc2sc3c(c2C#N)CCN(C(C)=O)C3)cc1	76	.	.	.
COc1cc(C(=O)Nc2sc3c(c2C#N)CCN(C(C)=O)C3)cc(OC)c1OC	78	.	.	.
Cn1c(O)c(/C=C2\C=Nc3ccccc32)sc1=Nc1ccc(C(=O)O)cc1	.	.	.	.
CCn1c(O)c(/C=C2\C=Nc3ccccc32)sc1=Nc1ccccc1	80	.	.	.
C[C@@H]1CN([C@@H](C)CO)C(=O)c2cc(-c3cccnc3)cnc2O[C@@H]1CN(C)Cc1ccccc1	/	/	.	/
COc1ccc2nc(C)c3c(c2c1)OC(C(C)(Cl)Br)C3 (stereo unspecified)	71	.	.	.
Cc1cc(C(=O)Nc2nc3ccc(S(C)(=O)=O)cc3s2)c(C)o1	82	.	.	.
COc1ccc2nc(NC(=O)c3cc(C)oc3C)sc2c1	83	.	/	.
CCCNC(=O)C[C@H]1CC[C@H]2[C@@H](COC[C@H](O)CN2C(=O)C2CCOCC2)O1	/	.	.	/
CC(C)C(Cl)=NOC(=O)Nc1ccc(S(N)(=O)=O)cc1	.	/	126	.
O=C(C1CCCCC1)N1C[C@@H]2[C@H](c3ccccc31)[C@H](CO)N2Cc1ccccc1Cl	/	.	.	/
CS(=O)(=O)Nc1ccc2c(c1)[C@H]1C[C@H](CC(=O)NCC3CC3)O[C@H](CO)[C@H]1O2	/	/	.	/
C=C(C)CSc1nc2c(c(=O)[nH]c(=O)n2C)n1CCC(C)C	.	.	55	.
CC(C)CSc1nc2c(c(=O)[nH]c(=O)n2C)n1CCc1ccccc1	.	.	71	.
C=CCn1c(SCC(=C)C)nc2c1c(=O)[nH]c(=O)n2C	.	.	.	.
CCCCCCn1c(SCC(C)C)nc2c1c(=O)[nH]c(=O)n2C	.	.	71	.
SMILES	SR-BI DiI inh	Yeast UUG start	INS-1E GSIS act	SR-BI DiI-HDL act
C[C@H](CO)N1C[C@H](C)[C@H](CN(C)C(=O)C2CCC2)Oc2ncc(-c3ccncc3)cc2C1=O	/	/	.	/
CC(C)CNC(=O)c1cc2nc3c(c(C(F)(F)F)n2n1)CCc1ccccc1-3	78	.	/	.
C=CC[C@]1(C(=O)N2CCOCC2)COC(c2ccc(OCCCO)cc2)=N1	/	.	/	/
O=C(NCCCNC(=O)c1c(F)cccc1F)c1c(F)cccc1F	78	.	.	.
COc1ccc(C(=O)c2ccc(N3CCOCC3)c([N+](=O)[O-])c2)cc1	80	.	.	.
COc1ccc(CNC(=O)c2ccc(N3CCOCC3)c([N+](=O)[O-])c2)cc1	.	/	.	.
COc1ccc(Nc2nnc(-c3ccc(N4CCOCC4)c([N+](=O)[O-])c3)c3ccccc23)cc1	79	/	/	.
CN(c1ccc(C(=O)N2CCN(Cc3ccccc3)CC2)cc1)S(=O)(=O)c1ccc(Cl)cc1	79	.	.	.
COc1ccccc1NC(=O)Nc1nc(CC(=O)Nc2cc(F)ccc2F)cs1	97	.	.	.
COc1ccccc1NC(=O)Nc1nc(CC(=O)Nc2ccc(N(C)C)cc2)cs1	91	.	.	.
CC1CCN(C(=O)c2ccccc2SCC(=O)NCC2CCCCC2)CC1	.	.	.	588
